Inhibition data for one molecule are collected here from ChEMBL document CHEMBL6083214, “Synthesis, biochemical screening and in-silico investigations of arylsulfonamides bearing linear and cyclic tails” (Bioorg Med Chem Lett, 2024).

For one experiment, the system named is MCF7. In words: cells. The settings on record: Homo sapiens, MCF7, read-out: INH.
The subject of the next experiment is HCT-116. In words: cells. The settings on record: Homo sapiens, HCT-116, read-out: INH.

Take `N#Cc1cccc(/C=N/c2ccc(S(N)(=O)=O)cc2)c1`: the inhibition at 10 µM turned out to be 14.9% with MCF7 and 46.9% in the experiment with HCT-116.
